According to PubChem BioAssay AID651812 (National Center for Advancing Translational Sciences (NCATS), 2012):
Only a part is listed here, and it is no random draw. Results filed as inconclusive are left out. Active and inactive are the calls of the source. The call rests on the fitted dose curve; in most records, active means well fitted inhibition curve with a large enough effect; inconclusive means small, poorly fitted or top-dose-only effect; inactive means flat fitted curve, though single readings scatter.

Experiment: qHTS for inhibitors of Vif-A3G interactions: Cherry picks; further: nearly all actives have a fitted effect of over 80% in size
Settings: HeLa A3G-eYFP + Vif (tagged APOBEC3G with the HIV-1 protein that degrades it), eYFP fluorescence increase, 24 h
Source text: The recent discovery and characterization of host restriction factors, which provide a potent defense to invading retroviruses, has provided new targets for antiviral drug development. APOBEC3G (A3G) and APOBEC3F (A3F) are potent cytidine deaminases that block HIV-1 replication; HIV-1 expresses the Vif protein, which counteracts A3G and A3F by binding to them and inducing their proteasomal degradation. The Vif-A3G and Vif-A3F interactions provide two potential targets for development of small molecules which can interfere with the ability of Vif to degrade A3G or A3F. […] To identify inhibitors that can interfere with Vif mediated degradation of A3G and A3F, we have developed Hela cell lines that stably express A3G or A3F tagged with eYFP at the C-terminal end (A3G-eYFP or A3F-eYFP, respectively) and Vif. In the absence of an inhibitor, Vif induces degradation of A3G-eYFP and A3F-eYFP, and the cells are not fluorescent. In the presence of an inhibitor, it is expected that Vif will be unable to degrade A3G-eYFP and/or A3F-eYFP, resulting in an increase in yellow fluorescence. […]
A3G-Vif cells were harvested from T225 flask and resuspended in phenol free OPTI-MEM medium with 5% FBS. […] After that, the plates were measured on Acumen Explorer (TTP Lab Tech). The fluorescence was detected by 488 nm/Ex and […].
Potency means the concentration at half of the fitted maximal effect.

| Structure (SMILES) | Potency |
| --- | --- |
| CC[n+]1c(/C=C/N(C)c2ccccc2)oc2ccccc21 | active: 13 µM |
